{"source": "patent US20250302016A1", "about": "“GENETICALLY MODIFIED NON-HUMAN ANIMAL WITH HUMAN OR CHIMERIC GENES” (Biocytogen Pharmaceuticals (Beijing) Co., Ltd., priority 2022, published 2025)", "key": {"[1]": {"system": "IL2 signaling pathway (STAT5 phosphorylation) in mouse splenocytes", "test": "Flow cytometry detection of pSTAT5 expression in T cells and NK cells after IL2 stimulation, IL2RB/IL2RG/IL15/IL15RA four-gene humanized mice", "assay_type": "cell-based", "conditions": "for pSTAT5 expression (CD4+ T cell) / pSTAT5 expression (CD8a+ cell) / pSTAT5 expression (NK1.1+ cell): splenocytes, 10 μg/mL IL2", "procedure": "(§1) The IL2 and IL15 signaling pathways in IL2RB/IL2RG double-gene humanized mice were detected by flow cytometry. Specifically, three 6-week old female C57BL/6 wild-type mice (+/+), three IL2RB/IL2RG double-gene humanized heterozygous mice (H/+; H/+), and three IL2RB/IL2RG double-gene humanized homozygous mice (H/H; H/H) were selected. Spleen tissues were collected and stimulated by 200 U human IL2 (Human IL-2 Protein, Tag Free), 10 ng/ml human IL15/IL15RA complex (Human IL-15 Protein, premium grade and Human IL-15 R alpha/CD215 Protein, Fc Tag mixed at a volume ratio of 1:1), or 10 ng/ml mouse IL15/IL15RA complex (Recombinant Mouse IL-15 Protein and Recombinant Mouse IL-15R alpha Fc Chimera Protein, CF mixed at a volume ratio of 1:1) for 30 minutes. eBioscience™ Fixable Viability Dye eFluor™ 780, Brilliant Violet 711™ anti-mouse TCR β chain Antibody, Phospho-Stat5 (Tyr694) (D47E7) XP® Rabbit mAb (used as primary antibodies) and Anti-rabbit IgG (H+L), F(ab′)2 Fragment (Alexa Fluor® 488 Conjugate) (used as a secondary antibody) were used to fix and stain the cells, followed by flow cytometric detection. No primary antibody was added to the corresponding secondary antibody control groups.\nThe IL2 and IL15 signaling pathways in IL2RB/IL2RG/IL15/IL15RA four-gene humanized mice were detected by flow cytometry. Similar to the IL2 and IL15 signaling pathway detection method for IL2RB/IL2RG double-gene humanized mice described herein, either 10 μg/mL human IL2 or mouse IL2 (Biotinylated Mouse IL-2 Protein) was used to stimulate mouse splenocytes. The cells were stained with: Brilliant Violet 421™ anti-mouse NK-1.1 Antibody, APC anti-mouse CD4 Antibody, and/or Alexa Fluor 700 anti-mouse CD8a Antibody, and then subjected to flow cytometry analysis."}, "[2]": {"system": "IL2 and IL15 signaling pathways (STAT5 phosphorylation) in spleen cells", "test": "Flow cytometry detection of T cell pSTAT5 expression after cytokine stimulation, IL2RB/IL2RG double-gene humanized mice", "assay_type": "cell-based, mouse", "conditions": "for T cell pSTAT5 expression: spleen, 200 U human IL2, 30 minutes", "procedure": "as §1"}, "[3]": {"conditions": "IL2RB/IL2RG/IL15/IL15RA four-gene humanized homozygous mice (H/H)"}}}
{"substance": "Human IL2: Human IL-2 Protein, Tag Free, purchased from ACROBiosystems", "values": [{"measurement": "pSTAT5 expression (CD4+ T cell)", "setting": "[1]; [3]", "result": 23.8, "unit": "%"}, {"measurement": "pSTAT5 expression (CD8a+ cell)", "setting": "[1]; [3]", "result": 93.5, "unit": "%"}, {"measurement": "pSTAT5 expression (NK1.1+ cell)", "setting": "[1]; [3]", "result": 81.9, "unit": "%"}, {"measurement": "phosphorylated expression of STAT5 after stimulation (in words)", "setting": "[1]; splenocytes of +/+ and four-gene humanized homozygous (H/H) mice, 10 μg/mL", "result": "phosphorylated expression of STAT5 was detected"}, {"measurement": "pSTAT5 expression (CD4+ T cell)", "setting": "[1]; wild-type C57BL/6 mice (+/+)", "result": 55.2, "unit": "%"}, {"measurement": "pSTAT5 expression (CD8a+ cell)", "setting": "[1]; wild-type C57BL/6 mice (+/+)", "result": 94.5, "unit": "%"}, {"measurement": "pSTAT5 expression (NK1.1+ cell)", "setting": "[1]; wild-type C57BL/6 mice (+/+)", "result": 83.2, "unit": "%"}, {"measurement": "T cell pSTAT5 expression", "setting": "[2]; IL2RB/IL2RG double-gene humanized heterozygous mice (H/+; H/+)", "result": 35.7, "unit": "%"}, {"measurement": "T cell pSTAT5 expression", "setting": "[2]; IL2RB/IL2RG double-gene humanized homozygous mice (H/H; H/H)", "result": 33.7, "unit": "%"}, {"measurement": "phosphorylation of STAT5 after stimulation (in words)", "setting": "[2]; spleen cells of +/+, H/+, H/+ and H/H, H/H mice", "result": "phosphorylation of STAT5 can be detected"}, {"measurement": "T cell pSTAT5 expression", "setting": "[2]; wild-type C57BL/6 mice (+/+)", "result": 26.6, "unit": "%"}]}
